Test results from patent US6964760B2, “Antimicrobial polypeptide, nucleic acid, and methods of use” (University of Florida Research Foundation, priority 1997, dated 2005).

Details: at concentrations required for NMR (2mM samples were made in 70-90% acetonitrile-d3)

Substance: mutacin 1140
- Solubility in aqueous solutions: not soluble
